# AlphaSeq binding of Ab-14 light chain variants to a spike HR2 peptide

The target is the same throughout: PDVDLGDISGINAS, from the HR2 region of SARS-CoV-2 spike.

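Phage display of a naive human antibody library on the peptide gave the parent. AAYL50 was designed without a model: most single CDR substitutions and a random sample of double and triple ones. The assay is AlphaSeq: two haploid yeast populations carry antibody and antigen on their surface. After mating in shaken culture at 30 °C for 16 h, diploids were selected and their barcode pairs sequenced. Scores were corrected for input abundance and mapped to Kd with protein pairs of known affinity run in the same pool. Each pool was mated in three replicate cultures.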

Ab-14 is the parent antibody, in scFv form: VH, then three GGGGS repeats, then VL. The heavy chain is unchanged in all variants.
VH: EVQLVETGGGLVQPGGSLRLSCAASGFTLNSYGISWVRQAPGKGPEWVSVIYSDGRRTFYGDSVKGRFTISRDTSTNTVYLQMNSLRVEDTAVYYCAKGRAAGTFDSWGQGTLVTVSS
VL: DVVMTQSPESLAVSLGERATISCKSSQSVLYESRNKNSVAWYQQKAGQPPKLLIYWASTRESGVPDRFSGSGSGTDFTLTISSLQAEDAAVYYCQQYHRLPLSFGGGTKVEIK

Positions count from residue 1 of the parent VL; Y31A puts A in place of Y.
This list gathers variants with a substitution at N35 (VL, numbered from residue 1).
Scale: log10 of Kd in nM, estimated from mating counts; low values are strong binders.
A mean of the replicates is given; it leaves out those without a signal.
"nd" marks a missing value. The strain was present, yet no cells mated with the target were sequenced in any replicate, which points to weak or no binding.
Background: pairings of library AAYL50 with three empty control strains gave a value in 18% of cases (median 4.19, 5th percentile 2.99). Values in that range, when seen in few replicates, are hard to tell from nonspecific mating.
Parent in this assay: reference entry 0.65, copy in this library 1.68.

- Y31A N35L A57R: 3.28 (3 of 3 replicates)
- N35D K36Y S62F: 1.09 (3 of 3 replicates)
- N35V H98L L100K: 5.48 (1 of 3 replicates)
- N35S: 0.37 (3 of 3 replicates)
- N35K A57K P101A: nd (0 of 3 replicates)
- K24A S28Q N35A: 2.84 (3 of 3 replicates)
- S26D N35K S62E: 0.68 (3 of 3 replicates)
- N35S K36R N37I: 3.19 (3 of 3 replicates)
- R34W N35F W56A: 0.24 (3 of 3 replicates)
- N35R S58A L102W: nd (0 of 3 replicates)
- N35C T59E R60P: 3.72 (2 of 3 replicates)
- L30G E32T N35Q: 1.57 (3 of 3 replicates)
- E32P N35M V39G: nd (0 of 3 replicates)
- N35E S58L T59I: nd (0 of 3 replicates)
- Q27A N35I P101D: 1.83 (3 of 3 replicates)
- N35W S38C P101H: nd (0 of 3 replicates)
- N35R E61A Y97D: 5.52 (2 of 3 replicates)
- N35F Y97S: nd (0 of 3 replicates)
- S33T N35E S38T: 3.09 (3 of 3 replicates)
- N35K A40G H98G: 3.23 (2 of 3 replicates)
- S28H N35T L100W: 2.52 (3 of 3 replicates)
- S26V Y31A N35M: nd (0 of 3 replicates)
- Y31N S33R N35K: 3.37 (1 of 3 replicates)
- Y31S N35G H98R: 2.05 (3 of 3 replicates)
- N35W L100R: nd (0 of 3 replicates)
- S33L N35M R99F: nd (0 of 3 replicates)
- S25L N35R W56L: 0.79 (3 of 3 replicates)
- S25N Q27A N35R: 5.79 (1 of 3 replicates)
- N35H K36L Q96L: 1.12 (3 of 3 replicates)
- Q27L N35S K36H: 1.05 (3 of 3 replicates)
- N35V T59S S62K: 3.63 (3 of 3 replicates)
- S33R N35C R60V: nd (0 of 3 replicates)
- Q27A E32A N35H: 1.87 (3 of 3 replicates)
- V29S N35I Y97F: 2.44 (3 of 3 replicates)
- E32H N35L A57I: 5.03 (2 of 3 replicates)
- E32Y N35T A40D: nd (0 of 3 replicates)
- Y31T N35E S62D: 0.41 (3 of 3 replicates)
- S25P N35M R99L: nd (0 of 3 replicates)

Extract of 6 entries:

changes,"log10 Kd (nM), mean",detected
V29S N35I Y97F,2.44,3 of 3
E32Y N35T A40D,nd,0 of 3
S33T N35E S38T,3.09,3 of 3
Y31N S33R N35K,3.37,1 of 3
L30G E32T N35Q,1.57,3 of 3
Q27A E32A N35H,1.87,3 of 3

From the AlphaSeq antibody data of Engelhart et al. 2022 (doi:10.1038/s41597-022-01779-4), copy in the FLAb collection.